A word on the LOAEL: it is the lowest dose or exposure tested at which an adverse effect was seen. What is called NOAEL is the highest dose or exposure tested at which no adverse effect was seen.

Each structure is given as a SMILES string.

For data set [1], the system named is rat. The following applies: Prenatal developmental toxicity study, other, Oral, Feed, dose end: 20 PND.
For data set [2], the system named is rat. To be noted: Prenatal developmental toxicity study, sprague dawley, Oral, Gavage/Intubation, dose end: 18 GD.
For data set [3], the system named is rabbit. The following applies: Prenatal developmental toxicity study, new zealand white, Oral, Gavage/Intubation, dose end: 13 day.
The test system of data set [4] is rat. The following applies: Prenatal developmental toxicity study, sprague dawley, Oral, Gavage/Intubation, dose end: 18 GD, group: maternal.
Data set [5] has as its system rat. To be noted: Sub-acute repeat dose toxicity; sprague dawley; Oral; Gavage/Intubation; dose end: 30 day; group: systemic; systemic / clinical chemistry / [other] / [other] + systemic / clinical chemistry / albumin / albumin + systemic / clinical chemistry / ….
In data set [6] the test system is rabbit. The following applies: Prenatal developmental toxicity study, Oral, Gavage/Intubation, dose end: 13 day.
The subject of data set [7] is rat. The following applies: Prenatal developmental toxicity study, sprague dawley, Oral, Gavage/Intubation, dose end: 12 day.
Data set [8] has as its system rabbit. The following applies: Prenatal developmental toxicity study, Oral, Gavage/Intubation, dose end: 13 day. The source holds these as a separate data set.
In data set [9] the test system is rabbit. The following applies: Prenatal developmental toxicity study, Oral, Gavage/Intubation, dose end: 19 GD.
For data set [10], the system named is rat. The following applies: Chronic toxicity; sprague dawley; Oral; Gavage/Intubation; dose end: 182 day; group: systemic; systemic / in life observation / body weight / body weight + systemic / in life observation / food consumption / food consumption + systemic….
Setting [11] is: group: developmental, systemic / in life observation / body weight / offspring (pup) weight.
The mark [12] stands for this setting: group: maternal, systemic / in life observation / body weight / body weight gain.
Where [13] appears, read: group: developmental, systemic / in life observation / body weight / fetal weight.
Setting [14] is: group: maternal, systemic / in life observation / clinical signs / altered breathing rate + systemic / in life observation / clinical signs / drooping ….
Where [15] appears, read: systemic / in life observation / body weight / body weight gain + systemic / in life observation / food consumption / food consumption.
[16] abbreviates: group: maternal, reproductive / reproductive performance / resorptions / resorptions + systemic / in life observation / body weight / body weight gain + ….
[17] abbreviates: group: maternal, systemic / in life observation / body weight / body weight gain + systemic / in life observation / food consumption / food consumption.
Setting [18] is: group: maternal, reproductive / reproductive performance / implantations / implantations + reproductive / reproductive performance / resorptions / ….

In data set [1] (setting [11]), `CC(C)(c1cc(Br)c(O)c(Br)c1)c1cc(Br)c(O)c(Br)c1` [3,3',5,5'-Tetrabromobisphenol A] displayed an LEL of 819 mg/kg/day, an LOAEL above 819 mg/kg/day, an NEL of 86.8 mg/kg/day and an NOAEL of at least 819 mg/kg/day. In [1] (setting [12]), this compound yielded an LEL of 819 mg/kg/day, an LOAEL above 819 mg/kg/day, an NEL of 86.8 mg/kg/day and a no observed adverse effect level (NOAEL) of at least 819 mg/kg/day.

For `CN1N=C2CCN(C(=O)[C@@H](COCc3ccccc3)NC(=O)C(C)(C)N)C[C@@]2(Cc2ccccc2)C1=O` [Capromorelin], the LEL in [2] (group: developmental, developmental / developmental malformation / bone / full supernumerary) stood at 1 mg/kg/day; in data set [2] (group: maternal, systemic / in life observation / body weight / body weight + systemic / in life observation / food consumption / food consumption), 15 mg/kg/day; in data set [3] (setting [13]), 15 mg/kg/day; in data set [3] (setting [14]), 15 mg/kg/day. The lowest-observed-adverse-effect level (LOAEL) in data set [3] (setting [13]) and in [3] (setting [14]) was above 100 mg/kg/day in each case. Further, the NOAEL in data set [3] (setting [13]) and in data set [3] (setting [14]) was at least 100 mg/kg/day each time.

Consider `O=C(Cc1ccc(Cl)c(Cl)c1)N(O)[C@H](CN1CC[C@H](O)C1)c1ccccc1`, for which the lowest-observed-adverse-effect level (LOAEL) in data set [4] (setting [15]) was above 15 mg/kg/day; in data set [6] (setting [13]), above 15 mg/kg/day; in data set [6] (setting [16]), above 15 mg/kg/day; in [7] (setting [13]), above 75 mg/kg/day; in [7] (setting [16]), above 75 mg/kg/day; in [8] (setting [13]), above 15 mg/kg/day. Besides, the LOAEL in data set [8] (setting [18]) is above 15 mg/kg/day. Also, the NEL was 1 mg/kg/day in data set [4] (setting [15]), below 1 mg/kg/day in data set [6] (setting [17]) and 1 mg/kg/day in [7] (setting [16]). For the same compound, the NOAEL in [4] (setting [15]) was at least 15 mg/kg/day; in [6] (setting [13]) it was at least 15 mg/kg/day; in [6] (setting [16]) it was at least 15 mg/kg/day; in data set [7] (setting [13]), at least 75 mg/kg/day; in data set [7] (setting [16]) it was at least 75 mg/kg/day; in data set [8] (setting [13]), at least 15 mg/kg/day. Moreover, the no observed adverse effect level (NOAEL) in data set [8] (setting [18]) was at least 15 mg/kg/day. For the same compound, the LEL in data set [4] (systemic / in life observation / food consumption / food consumption) came to 5 mg/kg/day; in data set [5] it was 15 mg/kg/day; in [6] (setting [13]) it was 10 mg/kg/day; in data set [6] (setting [17]) it was 1 mg/kg/day; in data set [7] (setting [13]), 75 mg/kg/day; in data set [7] (setting [16]), 15 mg/kg/day. Also, the LEL amounted to 15 mg/kg/day in [8] (setting [13]); 5 mg/kg/day in [8] (setting [17]); 5 mg/kg/day in [9] (group: developmental, developmental / developmental malformation / bone / delayed ossification + systemic / in life observation / body weight / fetal weight); 1 mg/kg/day in data set [9] (setting [17]); 15 mg/kg/day in data set [10].

The values are drawn from EPA's ToxRefDB 2.
